pIC50: −log10 of the molar value.
Target: human NaV1.5 (Homo sapiens (Human), UniProt Q14524)
Assay: cell-based

Protein sequences, listed by entry. Tags and fused reporters are not part of them. Chains listed by the source or under a name are the forms on record and can include a tag or linker.
UniProt Q14524, other isoform, or with tags, fused parts or gaps: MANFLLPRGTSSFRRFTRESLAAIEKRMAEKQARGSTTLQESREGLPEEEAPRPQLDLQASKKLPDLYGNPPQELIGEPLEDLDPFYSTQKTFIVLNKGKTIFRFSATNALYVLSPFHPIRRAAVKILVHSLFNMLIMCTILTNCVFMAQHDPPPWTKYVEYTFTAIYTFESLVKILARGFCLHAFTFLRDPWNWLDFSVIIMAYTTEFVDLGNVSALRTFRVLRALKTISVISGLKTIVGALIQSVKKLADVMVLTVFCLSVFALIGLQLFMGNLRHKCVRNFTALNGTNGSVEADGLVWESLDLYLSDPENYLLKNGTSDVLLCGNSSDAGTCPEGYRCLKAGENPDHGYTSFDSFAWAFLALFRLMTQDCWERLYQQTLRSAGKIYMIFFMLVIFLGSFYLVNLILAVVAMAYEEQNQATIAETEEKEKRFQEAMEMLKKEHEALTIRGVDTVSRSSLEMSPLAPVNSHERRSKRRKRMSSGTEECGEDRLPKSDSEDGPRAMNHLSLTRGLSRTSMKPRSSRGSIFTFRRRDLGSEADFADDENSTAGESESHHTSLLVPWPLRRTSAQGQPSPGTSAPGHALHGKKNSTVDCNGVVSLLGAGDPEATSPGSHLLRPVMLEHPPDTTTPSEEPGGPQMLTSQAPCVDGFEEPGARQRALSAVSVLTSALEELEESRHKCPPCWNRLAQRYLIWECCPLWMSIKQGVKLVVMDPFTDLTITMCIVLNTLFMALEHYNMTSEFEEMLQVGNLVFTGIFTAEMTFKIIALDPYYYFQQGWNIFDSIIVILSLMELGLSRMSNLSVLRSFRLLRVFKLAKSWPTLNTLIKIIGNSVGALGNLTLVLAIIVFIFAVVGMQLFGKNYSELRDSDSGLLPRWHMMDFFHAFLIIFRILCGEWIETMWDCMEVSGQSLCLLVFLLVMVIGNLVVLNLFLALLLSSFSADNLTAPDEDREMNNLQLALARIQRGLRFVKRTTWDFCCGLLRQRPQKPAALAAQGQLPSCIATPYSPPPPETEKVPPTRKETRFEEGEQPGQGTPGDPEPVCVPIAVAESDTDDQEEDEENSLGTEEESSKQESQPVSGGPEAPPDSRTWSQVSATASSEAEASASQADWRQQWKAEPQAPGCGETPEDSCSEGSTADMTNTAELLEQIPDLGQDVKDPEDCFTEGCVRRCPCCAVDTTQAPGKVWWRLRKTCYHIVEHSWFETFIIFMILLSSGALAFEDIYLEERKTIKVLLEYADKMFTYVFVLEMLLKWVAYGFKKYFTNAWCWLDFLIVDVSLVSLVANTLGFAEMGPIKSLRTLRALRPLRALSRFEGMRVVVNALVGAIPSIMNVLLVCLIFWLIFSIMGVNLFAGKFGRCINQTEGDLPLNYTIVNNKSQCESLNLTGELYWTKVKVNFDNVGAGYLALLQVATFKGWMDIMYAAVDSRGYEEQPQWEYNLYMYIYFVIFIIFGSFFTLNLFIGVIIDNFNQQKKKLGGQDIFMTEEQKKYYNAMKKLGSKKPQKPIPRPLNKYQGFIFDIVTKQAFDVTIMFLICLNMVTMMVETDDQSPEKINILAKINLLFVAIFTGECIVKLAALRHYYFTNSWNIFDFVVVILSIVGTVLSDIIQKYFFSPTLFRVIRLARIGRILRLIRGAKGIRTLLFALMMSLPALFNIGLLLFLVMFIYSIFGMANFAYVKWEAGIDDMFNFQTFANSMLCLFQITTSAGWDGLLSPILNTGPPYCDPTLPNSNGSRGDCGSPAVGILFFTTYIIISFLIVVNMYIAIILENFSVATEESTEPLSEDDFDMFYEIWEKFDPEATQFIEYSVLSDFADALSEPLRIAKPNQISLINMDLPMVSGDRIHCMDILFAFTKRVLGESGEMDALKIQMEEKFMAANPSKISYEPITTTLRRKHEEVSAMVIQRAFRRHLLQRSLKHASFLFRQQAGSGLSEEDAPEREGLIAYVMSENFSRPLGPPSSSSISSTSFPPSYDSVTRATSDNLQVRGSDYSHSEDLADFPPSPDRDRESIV

## Cc1cccc(CN2CC[C@H](Oc3ccc(S(=O)(=O)Nc4nccs4)cc3Cl)[C@H](C)C2)c1 (relative stereo) [Example 9A, 3-chloro-4-((cis-3-methyl-1-(3-methylbenzyl)piperidin-4-yl)oxy)-N-(thiazol-2-yl)benzenesulfonamide]
  pIC50: 5.23
